Measurements: patent publication US20250101023A1, “HETEROARYL DERIVATIVE AND USES THEREOF” (IUCF-HYU (INDUSTRY-UNIVERSITY COOPERATION FOUNDATION …, priority 2022, published 2025)

Assays:
HCC1954 cells = assay: Breast cancer growth inhibitory activity (Cell-titer Glo, 72 h); assay type: cell-based; settings: Homo sapiens
SK-Br3 cells = assay: as above; assay type: cell-based; settings: Homo sapiens, SK-BR-3

| Structure (SMILES) | GI50 (HCC1954 cells) [µM] | GI50 (SK-Br3 cells) [µM] |
| --- | --- | --- |
| CCn1cnc2c(NCc3ccc(-c4nccs4)nc3)nc(-c3cccnc3)nc21 [Example 55, 9-ethyl-2-(pyridin-3-yl)-N-((6-(thiazol-2-yl)pyridin-3-yl)methyl)-9H-purin-6-amine] | 0.529 |  |
| CCn1cnc2c(NCc3ccc(-n4nc(C)cc4C)nc3)nc(-c3cccnc3)nc21 [Example 60, N-((6-(3,5-dimethyl-1H-pyrazol-1-yl)pyridin-3-yl)methyl)-9-ethyl-2-(pyridin-3-yl)-9H-purin-6-amine] | 0.097 | 0.102 |
| CCn1cnc2c(NCc3ccc(-c4ccoc4)nc3)nc(-c3cccnc3)nc21 [Example 58, 9-ethyl-N-((6-(furan-3-yl)pyridin-3-yl)methyl)-2-(pyridin-3-yl)-9H-purin-6-amine] | 0.029 | 0.031 |
| CCn1cnc2c(NCc3ccc(-c4cn[nH]c4)nc3)nc(-c3cccnc3)nc21 [Example 56, N-((6-(1H-pyrazol-4-yl)pyridin-3-yl)methyl)-9-ethyl-2-(pyridin-3-yl)-9H-purin-6-amine] | 3.2 |  |
| CCn1cnc2c(NCc3ccc(-c4ccc5cn[nH]c5c4)nc3)nc(-c3cccnc3)nc21 [Example 57, N-((6-(1H-indazol-6-yl)pyridin-3-yl)methyl)-9-ethyl-2-(pyridin-3-yl)-9H-purin-6-amine] | 5.04 |  |
| CCn1cnc2c(NCc3ccc(-n4cccn4)nc3)nc(-c3cccnc3)nc21 [Example 59, N-((6-(1H-pyrazol-1-yl)pyridin-3-yl)methyl)-9-ethyl-2-(pyridin-3-yl)-9H-purin-6-amine] | 0.039 | 0.032 |

The next lines start with the values.

| GI50 (HCC1954 cells) [µM] | GI50 (SK-Br3 cells) [µM] | Structure (SMILES) |
| --- | --- | --- |
| 0.15 |  | CCn1cnc2c(NCc3ccc(-n4nc(C)cc4C)nc3)nc(-c3ccc(N)nc3)nc21 [Example 61, 2-(6-aminopyridin-3-yl)-N-((6-(3,5-dimethyl-1H-pyrazol-1-yl)pyridin-3-yl)methyl)-9-ethyl-9H-purin-6-amine] |
| 0.02 | 0.019 | CCn1cnc2c(NCc3ccc(-n4nc(C)cc4C)nc3)nc(N3CCOC[C@H]3CCO)nc21 [Example 66, (R)-2-(4-(6-(((6-(3,5-dimethyl-1H-pyrazol-1-yl)pyridin-3-yl)methyl)amino)-9-ethyl-9H-purin-2-yl)morpholin-3-yl)ethan-1-ol] |
| 0.038 | 0.035 | CCn1cnc2c(NCc3ccc(-n4nc(C)cc4C)nc3)nc(N3CCCC[C@H]3CCO)nc21 [Example 65, (S)-2-(1-(6-(((6-(3,5-dimethyl-TH-pyrazol-1-yl)pyridin-3-yl)methyl)amino)-9-ethyl-9H-purin-2-yl)piperidin-2-yl)ethan-1-ol] |
